Values quoted from earlier work as cited in patent US10576309B2, “Method of reducing perspiration” (BEIERSDORF AG, priority 2015, dated 2020).

For Silicic acid, the pKa1 (first dissociation constant) is listed as 9.51 and the pKa2 (second dissociation constant) is listed as 11.74.
